Data on one compound can be found in patent US20200024223A1, “CRYSTALLINE SALTS OF (4S,4AS,5AR,12AS)-4-DIMETHYLAMINO-3,10,12,12A-TETRAHYDROXY-7-[(METHOXY(METHYL)AMINO)-METHYL]-1,11-DIOXO-1,4,4A,5,5A,6,11,12A-OCTAHYDRO-NAPHTHACENE-2-CARBOXYLIC ACID AMIDE AND METHODS OF USING THE SAME” (priority 2011, published 2020).

The structures appear in SMILES notation.

The subject of assay [1] is E. faecium. In words: In vitro MIC testing, antibacterial spectrum of activity. Conditions: vancomycin-resistant E. faecium; fold higher than minocycline. Format: cell-based.
The test system of assay [2] is E. cloacae. The description is as above. The note with it: fold higher than the other tetracyclines.

Regarding `CON(C)Cc1ccc(O)c2c1C[C@H]1C[C@H]3[C@H](N(C)C)C(O)=C(C(N)=O)C(=O)[C@@]3(O)C(O)=C1C2=O` [The Active, (4S,4aS,5aR,12aS)-4-dimethylamino-3,10,12,12a-tetrahydroxy-7-[(methoxy(methyl)amino)-methyl]-1,11-dioxo-1,4,4a,5,5a,6,11,12a-octahydro-naphthacene-2-carboxylic acid amide], the “MIC50 relative to that of minocycline” value in assay [1] came to 8 fold. In addition, in assay [2], the “MIC50 relative to those of the other tetracyclines” value is reported as 16- to 32 fold.
